{"source": "paper PMC2778353", "about": "“Toxicity of Xanthene Food Dyes by Inhibition of Human Drug-Metabolizing Enzymes in a Noncompetitive Manner” (Journal of Environmental and Public Health, 2009)", "target": "T1, UGT1A6 (Homo sapiens, UniProt P19224)", "T1 sequence (P19224 27-532)": "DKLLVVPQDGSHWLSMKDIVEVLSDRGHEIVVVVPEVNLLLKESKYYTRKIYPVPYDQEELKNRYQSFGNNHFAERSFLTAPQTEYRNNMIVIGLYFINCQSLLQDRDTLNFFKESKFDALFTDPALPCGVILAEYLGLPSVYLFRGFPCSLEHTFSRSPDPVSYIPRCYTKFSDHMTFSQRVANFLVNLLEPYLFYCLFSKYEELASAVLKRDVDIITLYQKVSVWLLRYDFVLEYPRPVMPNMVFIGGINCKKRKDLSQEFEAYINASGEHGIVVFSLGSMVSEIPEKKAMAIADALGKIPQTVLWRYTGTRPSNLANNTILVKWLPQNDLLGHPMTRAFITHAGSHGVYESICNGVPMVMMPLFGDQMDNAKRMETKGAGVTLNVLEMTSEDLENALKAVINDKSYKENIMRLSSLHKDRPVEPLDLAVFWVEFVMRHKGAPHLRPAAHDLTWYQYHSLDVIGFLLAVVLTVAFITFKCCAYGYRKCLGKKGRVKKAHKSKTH", "assay": "Inhibition of UGT1A6 activity (glucuronidation of p-nitrophenol) in pooled human liver microsomes"}
{"smiles": "O=S(=O)([O-])c1cc(S(=O)(=O)[O-])c2c(N=Nc3ccc(S(=O)(=O)[O-])c4ccccc34)c(O)ccc2c1.[Na+].[Na+].[Na+]", "note": "[New coccine (NC), new coccine]", "values": [{"measurement": "Inhibition of UGT1A6 activity (in words)", "value": "insignificant inhibition"}]}
